By UniProt entry, the sequences of proteins in these tests, tags left out. Residues count along the entry.
UniProt P35916, 25-1363: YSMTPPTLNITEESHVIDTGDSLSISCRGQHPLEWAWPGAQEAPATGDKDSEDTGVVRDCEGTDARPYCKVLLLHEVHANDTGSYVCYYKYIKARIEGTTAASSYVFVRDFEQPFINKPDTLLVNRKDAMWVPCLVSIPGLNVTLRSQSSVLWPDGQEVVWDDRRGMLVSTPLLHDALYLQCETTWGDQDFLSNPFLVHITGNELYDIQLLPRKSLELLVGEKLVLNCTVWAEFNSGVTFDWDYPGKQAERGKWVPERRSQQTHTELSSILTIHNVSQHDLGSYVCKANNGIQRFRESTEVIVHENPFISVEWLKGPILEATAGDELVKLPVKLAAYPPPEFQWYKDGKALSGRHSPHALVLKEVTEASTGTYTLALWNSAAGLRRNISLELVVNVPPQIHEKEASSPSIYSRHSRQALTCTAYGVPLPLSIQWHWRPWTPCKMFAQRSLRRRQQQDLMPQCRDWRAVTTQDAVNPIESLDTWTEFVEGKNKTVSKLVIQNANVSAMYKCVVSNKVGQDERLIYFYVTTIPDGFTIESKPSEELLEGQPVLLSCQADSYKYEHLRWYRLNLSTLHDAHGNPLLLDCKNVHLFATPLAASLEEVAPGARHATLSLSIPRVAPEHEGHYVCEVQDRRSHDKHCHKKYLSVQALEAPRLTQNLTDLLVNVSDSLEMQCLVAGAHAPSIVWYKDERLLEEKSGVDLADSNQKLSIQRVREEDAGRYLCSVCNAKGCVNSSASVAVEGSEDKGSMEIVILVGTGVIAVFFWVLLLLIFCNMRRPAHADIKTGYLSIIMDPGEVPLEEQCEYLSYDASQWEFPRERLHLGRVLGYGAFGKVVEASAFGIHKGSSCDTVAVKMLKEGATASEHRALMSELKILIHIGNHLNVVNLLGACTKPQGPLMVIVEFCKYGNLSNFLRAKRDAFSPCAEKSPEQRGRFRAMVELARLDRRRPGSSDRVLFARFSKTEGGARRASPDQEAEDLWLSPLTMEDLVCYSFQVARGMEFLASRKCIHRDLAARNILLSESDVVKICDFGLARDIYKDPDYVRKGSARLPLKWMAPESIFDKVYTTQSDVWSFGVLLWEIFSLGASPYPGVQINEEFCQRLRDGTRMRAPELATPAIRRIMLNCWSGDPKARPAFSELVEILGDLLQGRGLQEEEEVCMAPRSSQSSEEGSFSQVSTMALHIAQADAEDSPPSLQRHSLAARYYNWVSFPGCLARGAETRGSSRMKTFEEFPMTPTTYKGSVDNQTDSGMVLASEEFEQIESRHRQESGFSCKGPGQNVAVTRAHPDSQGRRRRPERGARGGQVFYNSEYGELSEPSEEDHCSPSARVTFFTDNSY
UniProt P35916, 798-1298 isoform P35916-1: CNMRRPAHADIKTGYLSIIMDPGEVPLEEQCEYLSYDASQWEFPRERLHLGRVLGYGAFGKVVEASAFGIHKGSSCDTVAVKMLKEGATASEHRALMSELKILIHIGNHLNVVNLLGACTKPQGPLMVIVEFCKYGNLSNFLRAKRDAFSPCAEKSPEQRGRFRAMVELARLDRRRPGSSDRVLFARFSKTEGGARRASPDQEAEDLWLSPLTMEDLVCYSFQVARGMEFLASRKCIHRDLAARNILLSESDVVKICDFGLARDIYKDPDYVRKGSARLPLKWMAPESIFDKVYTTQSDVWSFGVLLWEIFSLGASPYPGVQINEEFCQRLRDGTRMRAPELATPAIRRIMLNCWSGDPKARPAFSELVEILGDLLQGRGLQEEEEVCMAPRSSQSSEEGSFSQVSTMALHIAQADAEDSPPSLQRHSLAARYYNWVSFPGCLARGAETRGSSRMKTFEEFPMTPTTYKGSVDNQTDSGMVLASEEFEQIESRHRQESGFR

In US20160009686A1, “VEGFR3 INHIBITORS” (CANCER THERAPEUTICS CRC PTY LIMITED, priority 2012, published 2016):

Tests used:
[1] = target: VEGFR3 (Homo sapiens, UniProt P35916); assay: VEGFR3 Phospho ELISA Assay; type: cell-based; settings: HMVEC-dLyAD cells, treated for 1 hour, VEGFC stimulated; phospho VEGFR3 relative to Total VEGFR3
[2] = target: VEGFR3 cytoplasmic domain (Homo sapiens, UniProt P35916); assay: VEGFR3 Biochemical Assay (AlphaScreen); settings: GST-fusion enzyme, 500 μM ATP, 90 minutes at 30 degree Celsius (modified form in some cases: Hexa-His-fusion enzyme, 1 μM ATP)

SMILES	IC50 [1] [nM]	IC50 [2] [nM]
CC(C(N)=O)c1ccccc1CCc1nc(Nc2cnn(C3CCN(C)CC3)c2)ncc1C(F)(F)F (single isomer, unassigned) [Compound 57-2A, 2-(2-(2-(2-((1-(1-Methylpiperidin-4-yl)-1H-pyrazol-4-yl)amino)-5-(trifluoromethyl)pyrimidin-4-yl)ethyl)phenyl)propanamide]	19	–
CC(C(N)=O)c1ccccc1CCc1nc(Nc2cnn(C3CCN(C)CC3)c2)ncc1C(F)(F)F (stereo not drawn) [Compound 57, 2-(2-(2-(2-((1-(1-Methylpiperidin-4-yl)-1H-pyrazol-4-yl)amino)-5-(trifluoromethyl)pyrimidin-4-yl)ethyl)phenyl)propanamide]	27	27
